Measurements from ChEMBL document CHEMBL1123919, “Molecular modification of anticholinergics as probes for muscarinic receptors. 3. Conformationally restricted analogues of benactyzine” (J Med Chem, 1987).

Species: Rattus norvegicus
Experiment: Antimuscarinic potency is measured as its ability to block ACh-induced contractions of the rat ileum.
Assay type: functional

CCN(CC)CCOC(=O)C(O)(c1ccccc1)c1ccccc1
pA2: 7.46
